Here are results for 1 substance from patent US6416965B2, “Screening methods for presqualene disphosphate analogs” (Brigham and Women's Hospital, priority 1997, dated 2002).

By UniProt entry, the sequences of proteins in these tests, tags left out.
UniProt P62993, whole entry: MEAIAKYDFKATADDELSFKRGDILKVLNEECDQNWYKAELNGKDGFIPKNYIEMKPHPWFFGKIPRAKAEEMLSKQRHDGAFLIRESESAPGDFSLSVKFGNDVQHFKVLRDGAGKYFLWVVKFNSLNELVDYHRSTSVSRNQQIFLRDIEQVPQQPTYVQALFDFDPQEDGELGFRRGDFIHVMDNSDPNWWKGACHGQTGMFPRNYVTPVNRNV

The target in this test is T1, Gst-Grb2 fusion protein (Homo sapiens, UniProt P62993).
T1 construct: purchased Upstate Biotechnology 14-128
Description: PSDP equilibrium binding assay to GST-GRB2. To be noted: excess unlabeled PSDP; albumin 50 μg; Sos 50 μg. The text has this:
SH2 and SH3 domains on intracellular proteins are thought to be critical sites of phosphorylation by specific kinases in the regulation of signal transduction (Pawson, T., Schlessinger, J., Current Biology, 1993; 3:434). Of special interest during inflammation and wound repair, these domains appear to play pivotal roles during cytokine (e.g., growth factors) signaling via tyrosine kinases. Granulocyte/macrophage-colony stimulating factor stimulates phosphate turnover in presqualene diphosphate and presqualene monophosphate (FIG. 3b) indicating a potential role for these compounds in cytokine signaling. Furthermore, SH2 or SH3 domains are present on important regulatory intracellular enzymes (e.g., PLCγ) and have been reported to play pivotal roles in neutrophil responses (e.g., NADPH oxidase activation) (Ree, SG, et al., Journal of Biological Chemistry, 1997; 272:15045) (McPhail, LC, Journal of Experimental Medicine, 1994; 180:2011) Therefore, it was determined whether polyisoprenyl phosphates could associate with these important intracellular phosphate-sensing domains. Equilibrium binding was determined for ^32PO4-PSDP (1 μM) to the adaptor protein, Grb2, which is known to carry two SH3 domains and one SH2 domain (Lowenstein, EJ, et al., Cell, 1992; 70:431). […] Bound material was separated from unbound by spin filtration (0.2 μm) and quantitated by scintillation counting. […]

Regarding “delipidated albumin: delipidated human serum albumin used as competing compound [reference compound]”, the “competition of radioligand (32PO4-PSDP) off Gst-Grb2” value is listed as “could be competed off”.
